Laboratory results published in patent US20250049939A1, “NOVEL FLT3 ANTIBODIES AND ANTIBODY-DRUG-CONJUGATES BASED THEREON, THERAPEUTIC METHODS AND USES THEREOF IN COMBINATION WITH TYROSINE KINASE INHIBITORS” (TUBULIS GmbH, priority 2021, published 2025).

Test system: FLT3 cell surface expression in MOLM-13 cells
Test: FLT3 cell surface expression in MOLM-13 after kinase inhibitors, flow cytometry
Format: cell-based, human
Conditions: 6, 24, 48 and 72 h incubation
Experimental: Cells were analyzed in flow cytometry after treatment. Dotted line represents MFI ratio of untreated cells. Mean±s.d. of n=2 is depicted. […] Grey triangles indicate increasing drug concentrations. […] Mean±standard deviation is depicted.

CC(C)(C)c1cc(NC(=O)Nc2ccc(-c3cn4c(n3)sc3cc(OCCN5CCOCC5)ccc34)cc2)no1 [Quizartinib]
FLT3 cell surface expression: increase of FLT3 cell surface expression
